Usually IC50 stands for the midpoint of a concentration-inhibition curve.

The target in this test is T1, human neutrophil elastase (HNE) (Homo sapiens, UniProt P08246).
T1 sequence (P08246 30-267): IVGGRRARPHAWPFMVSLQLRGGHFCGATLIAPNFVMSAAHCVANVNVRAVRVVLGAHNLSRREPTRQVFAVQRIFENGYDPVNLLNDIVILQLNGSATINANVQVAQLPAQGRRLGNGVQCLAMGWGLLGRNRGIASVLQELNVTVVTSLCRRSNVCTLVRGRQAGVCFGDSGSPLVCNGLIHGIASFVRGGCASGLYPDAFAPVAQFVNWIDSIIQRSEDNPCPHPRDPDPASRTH
The experiment in a line: HNE enzyme assay. The class given is biochemical.

`CC(C)(C)C(=O)Oc1ccc(S(=O)(=O)Nc2ccccc2C(=O)NCC(=O)O)cc1` [sivelestat] returned a concentration for half-maximal inhibition (IC50) of 123 nM. That is a sub-micromolar value.
